For 1 compound, EC50 results are on record in BindingDB's records for doi:10.1021/acs.jmedchem.0c00807 (University of Oxford, 2020).

A short description of this experiment: Modulation of human utrophinA expressed in mouse H2K cells assessed as upregulation of utrophin production after 24 hrs by luciferase reporter gene assay. (In general: In a reporter assay the amount or activity of a reporter protein is the signal.)

The EC50 is the concentration giving half of the maximal effect.

On to `CCP(=O)(OC)c1ccc2oc(-c3ccc(F)cc3)nc2c1` (stereo unspecified), for which the EC50 was found to be 711 nM.
